For four substances, Kd results are on record in PMC7704945.

Sequences of proteins named here, by UniProt entry; tags and fusion partners are left off.
UniProt Q8N884, whole entry: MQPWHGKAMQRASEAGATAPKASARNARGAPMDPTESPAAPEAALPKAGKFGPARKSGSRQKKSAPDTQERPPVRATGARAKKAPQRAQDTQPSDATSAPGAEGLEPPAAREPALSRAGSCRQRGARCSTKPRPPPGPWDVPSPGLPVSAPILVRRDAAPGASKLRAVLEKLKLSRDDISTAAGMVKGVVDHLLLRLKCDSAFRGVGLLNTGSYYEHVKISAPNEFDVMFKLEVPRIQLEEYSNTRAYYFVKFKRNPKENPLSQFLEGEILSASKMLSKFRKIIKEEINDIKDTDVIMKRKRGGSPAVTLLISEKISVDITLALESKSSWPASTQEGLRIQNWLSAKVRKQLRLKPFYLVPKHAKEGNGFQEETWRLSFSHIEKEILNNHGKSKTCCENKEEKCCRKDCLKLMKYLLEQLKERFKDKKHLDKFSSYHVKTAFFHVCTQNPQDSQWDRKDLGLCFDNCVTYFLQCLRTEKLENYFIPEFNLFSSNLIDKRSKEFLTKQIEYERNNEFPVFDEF

Holding throughout (test): SPR
For orientation: SPR reads the build-up and loss of mass on a sensor chip optically.

Data set [1] has as its target biotin-Avi-His6-SUMO full-length human cGAS (human) (UniProt Q8N884).
The target of data set [2] is human cGAS full-length (Homo sapiens) (UniProt Q8N884).
Data set [3] concerns human cGAS catalytic domain (Homo sapiens).

In general, Kd refers to the constant that tells how readily two partners part at equilibrium. Read a high Kd as weaker binding. In turn, “nucleosomes purified from HEK 293T cells (from UniProt P04908;P06899;P68431;P62805) (complex)” had an equilibrium dissociation constant (Kd) in data set [1] of 6.3 nM. As to mononucleosomes purified from HEK 293T, the Kd in data set [2] was 6.3 nM. The substance “in vitro reconstituted human nucleosome (H2A, H2B, H3-C110A, H4, Widom 601 DNA) (from UniProt P04908;P06899;P62805) (complex)” showed a dissociation constant (Kd) in data set [1] of 8.6 nM. As to “reconstituted human nucleosome, Widom 601”, the Kd in data set [2] came to 8.6 nM; in data set [3], 2.9 nM.
